This is an account of results in ChEMBL document CHEMBL5370533, “Rational design of 4-((6-phenoxypyrimidin-4-yl)amino)-N-(4-(piperazin-1-yl)phenyl)-1H-pyrazole-3-carboxamide (LT-540-717) as orally bioavailable FLT3 inhibitor” (Eur J Med Chem, 2023).

SMILES strings stand for the structures.

Assay [1] is filed under the species Homo sapiens. The assay is described as follows: Selectivity ratio of IC50 for human CDK2 to IC50 for human FLT3.
For assay [2], the species on record is Homo sapiens. Kind of assay: Selectivity ratio of IC50 for human CDK6 to IC50 for human FLT3.

Turning to `O=C(Nc1ccc(N2CCNCC2)cc1)c1n[nH]cc1Nc1cc(Oc2ccccc2)ncn1`, the Ratio IC50 in the assay listed under Homo sapiens [1] and in the assay filed under Homo sapiens [2] was 150 each time.
